Assays:
HT-29 cells = assay: Laser confocal study of HFn-Dox entering the cell; format: cell-based, human; conditions: 1 μM Cy 5.5-HFn-Dox, 1 minute to 72 hours
Excerpt: The principle of chemotherapeutic drug Doxorubicin molecules killing tumor was that Doxorubicin molecules were embedded in the double helix of DNA after entering the cell nucleus to inhibit the replication and transcription of DNA, such that tumor cells were induced to apoptosis. That is, the prerequisite for Doxorubicin exerting an effect of killing tumor was being capable of entering the cell nucleus of a tumor cell. In order to study whether HFn-Dox can release Doxorubicin loaded therein and pass it into the cell nucleus in the process and after entering a cell, we carried out observation using fluorescence-labeled HFn-Dox and a laser confocal means.
A specific example was as follows. HFn-Dox nanoparticles were first subjected to Cy 5.5 modification. HT-29 cells growing on glass coverslips were cultured for 12 hour, and were incubated with 1 μM Cy 5.5-HFn-Dox in an incubator for 1 minute, 24 hours, 48 hours, and 72 hours respectively. After washing with PBS for three times, 4% paraformaldehyde was used for fixing for 5 minutes. 0.1% Triton X-100 was then used to permeabilize cells. After washing with PBS again, cells were blocked with 5% sheep serum at room temperature for 30 minutes. […] The protein shell in the HFn-Dox nanoparticle was labeled with Cy 5.5, a marker molecule LAMP-1 of the lysosome was labeled with Alexa-488; and fluorescence signal of Dox itself was observed. […]

[1] = Maximal tolerated dosage in healthy mice, single administration; conditions: versus free Doxorubicin
Excerpt: In the therapy of a cancer patient, the dosage of administration and the number of administration were very important. However, bound by toxic side effects of chemotherapeutic drugs, the therapy of cancer usually became administration in a small amount at a high frequency.

HT-29 implanted tumor = assay: Anti-tumor pharmacodynamics in nude mice bearing HT-29 implanted tumor; conditions: single tail vein dose; free Dox 5 mg/kg, Doxil 20 mg/kg

With “HFn: recombinant full heavy-chain human ferritin (H-ferritin), empty protein shell nanocarrier expressed in E. coli” the “intracellular fate of the nanoparticle / protein shell” value (HT-29 cells) was “transported into an endosome, and finally passed into a lysosome”, the “increase of tolerated dosage of mice to Dox” value [1] was 4 times and the “average survival time of tumor-bearing mice” value (HT-29 implanted tumor) was 18 days.
